Data published in ChEMBL document CHEMBL3102719, “Ligands of the neuropeptide Y Y2 receptor” (Bioorg Med Chem Lett, 2014).

Columns and labels:
[1] = species on record: Homo sapiens; experiment: Selectivity ratio of human NPYY5 receptor to NPYY2 receptor (unknown origin)
[2] = species on record: Homo sapiens; experiment: Selectivity ratio of human NPYY1 receptor to NPYY2 receptor (unknown origin)
[3] = species on record: Homo sapiens; experiment: Selectivity ratio of human NPYY4 receptor to NPYY2 receptor (unknown origin)

Measured: Selectivity ratio

CC(=O)N1CCc2ccc(N(C(=O)/C=C/c3cccc(C#N)c3)C3CCN(CCC4CCCC4)CC3)cc21
> 100: all assays above
